# Cyclic peptide permeability, from CycPeptMPDB

Values of Furukawa et al. 2016, doi:10.1021/acs.jmedchem.6b01246, as listed in CycPeptMPDB.

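The data file gives no further conditions (lipid, pH, time, direction or concentration), and values from different papers need not be comparable. Other peptides of the study may be missing here. Entries at the database's floor value (log10 P of -10) are not listed.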

PAMPA measures passive passage through an artificial lipid membrane.
Permeability is in 10^-6 cm/s, converted from the database's log10 values; higher is more permeable.

CCCCCN1CC(=O)N(C)[C@@H](CC(C)C)C(=O)N[C@@H](CCCC)C(=O)N2CCC[C@H]2C(=O)N(CC)CC(=O)N[C@H](Cc2ccccc2)C1=O has PAMPA 6 × 10^-6 cm/s. CCCCCN1CC(=O)N[C@@H](CC(C)C)C(=O)N[C@@H](CCCC)C(=O)N2CCC[C@@H]2C(=O)N(Cc2ccc3c(c2)OCO3)CC(=O)N[C@@H](C)C1=O has PAMPA 4.8 × 10^-6 cm/s. Listed for CCCC[C@@H]1NC(=O)[C@H](CC(C)C)N(C)C(=O)CN(CC2CCCCC2)C(=O)[C@@H](Cc2ccccc2)NC(=O)CN(CCCOC(C)C)C(=O)[C@@H]2CCCN2C1=O: PAMPA 7.9 × 10^-6 cm/s. CCCC[C@@H]1NC(=O)[C@H](CC(C)C)NC(=O)CN(CC2CCOCC2)C(=O)[C@@H](Cc2ccccc2)NC(=O)CN(CCCOC(C)C)C(=O)[C@H]2CCCN2C1=O is reported with PAMPA 0.47 × 10^-6 cm/s. The entry for CCCCCN1CC(=O)N(C)[C@@H](CC(C)C)C(=O)N[C@@H](CCCC)C(=O)N2CCC[C@@H]2C(=O)N(CC)CC(=O)N[C@@H](Cc2ccccc2)C1=O lists PAMPA 9.1 × 10^-6 cm/s. CCCC[C@@H]1NC(=O)[C@H](CC(C)C)NC(=O)CN(CC2CCCCC2)C(=O)[C@H](Cc2ccccc2)NC(=O)CN(Cc2ccc3c(c2)OCO3)C(=O)[C@@H]2CCCN2C1=O has PAMPA 3.9 × 10^-6 cm/s. The entry for CCCC[C@@H]1NC(=O)[C@H](CC(C)C)NC(=O)CN(CC2CCOCC2)C(=O)[C@@H](Cc2ccccc2)NC(=O)CN(Cc2ccc3c(c2)OCO3)C(=O)[C@H]2CCCN2C1=O lists PAMPA 1.3 × 10^-6 cm/s. The entry for CCCCCN1CC(=O)N(C)[C@H](CC(C)C)C(=O)N[C@@H](CCCC)C(=O)N2CCC[C@@H]2C(=O)N(Cc2ccc3c(c2)OCO3)CC(=O)N[C@@H](C)C1=O lists PAMPA 10 × 10^-6 cm/s.

CCCCCN1CC(=O)N(C)[C@H](CC(C)C)C(=O)N[C@@H](CCCC)C(=O)N2CCC[C@H]2C(=O)N(CC)CC(=O)N[C@@H](C)C1=O is reported with PAMPA 5 × 10^-6 cm/s. CCCC[C@@H]1NC(=O)[C@@H](CC(C)C)N(C)C(=O)CN(CC2CCCCC2)C(=O)[C@@H](Cc2ccccc2)NC(=O)CN(CC)C(=O)[C@@H]2CCCN2C1=O is reported with PAMPA 13 × 10^-6 cm/s. CCCC[C@@H]1NC(=O)[C@H](CC(C)C)N(C)C(=O)CN(CC2CCCCC2)C(=O)[C@H](Cc2ccccc2)NC(=O)CN(CC)C(=O)[C@H]2CCCN2C1=O is reported with PAMPA 4.3 × 10^-6 cm/s. The entry for CCCC[C@@H]1NC(=O)[C@H](CC(C)C)NC(=O)CN(CC2CCCCC2)C(=O)[C@H](C)NC(=O)CN(CC)C(=O)[C@@H]2CCCN2C1=O lists PAMPA 0.41 × 10^-6 cm/s. CCCCCN1CC(=O)N(C)[C@@H](CC(C)C)C(=O)N[C@@H](CCCC)C(=O)N2CCC[C@H]2C(=O)N(CCCOC(C)C)CC(=O)N[C@H](C)C1=O is reported with PAMPA 5.9 × 10^-6 cm/s.

2 of these entries, quoted again:

The entry for CCCCCN1CC(=O)N(C)[C@@H](CC(C)C)C(=O)N[C@@H](CCCC)C(=O)N2CCC[C@H]2C(=O)N(CC)CC(=O)N[C@H](Cc2ccccc2)C1=O lists PAMPA 6 × 10^-6 cm/s.
The entry for CCCC[C@@H]1NC(=O)[C@H](CC(C)C)NC(=O)CN(CC2CCOCC2)C(=O)[C@@H](Cc2ccccc2)NC(=O)CN(CCCOC(C)C)C(=O)[C@H]2CCCN2C1=O lists PAMPA 0.47 × 10^-6 cm/s.